Measurements reported in patent EP2138174A1, “PHARMACEUTICAL COMPOSITION IN THE FORM OF A SUBLINGUAL TABLET CONSISTING OF A NON-STEROIDAL ANTI-INFLAMMATORY AGENT AND AN OPIATE ANALGESIC FOR PAIN MANAGEMENT” (priority 2007, dated 2008).
Counter-ions that a name gives are not always drawn.

Tests used:
[1] = test system: stomach; assay: Gastrointestinal side effect measurement (gastric ulcers and erosions, relative to indomethacin); parameters: species or system Female rats from Wistar type; conditions: rat, in vivo
Description: Female rats from Wistar type (150-180 g body weight) were subject to fasting 24 hours before experimentation. Indomethacin was supplied (20 mg/kg) to cause gastric ulcer at 100% (Lee et al., 1971 Déciga-Campos et al., 2003); ketorolac (1.0 mg/kg), tramadol (17.8 mg/kg), vehicle (carboxymethylcellolose at 0.5%) and a combination of ketorolac plus tramadol (1.0 and 17.8 mg/kg respectively) was orally delivered simultaneously and to the five groups (six rats each). 2.5 hours later, all the groups received a second administration of the same doses. […] Severity of induced gastric lesions with medicament was calculated as a ratio of number of lesions (stomach ulcer or erosion) caused by provided treatment and the number of lesions caused by indomethacin (100%). This was determined to reflect the side effects induced by medicament. The sum of the area of all the ulcers in the body of each animal was calculated and served as an ulcerative index. Gastric lesion percentage was calculated in the following way: % of gastric lesion = (IUM/IUI) × 100 [formula] wherein IUM is the Medicament Ulcerative Index on test (mm^2) and IUI is the Ulcerative Index for assayed Indomethacin (mm^2).
Synergism between ketorolac and tramadol was calculated with the synergic interaction surface analysis (SIS) and with the isobolographic method (Tallarida et al., 1989). […]

[2] = human, in vivo
Description: Blood samples were taken up to 24 hours after medicament delivery.
In order to determine whether bioavailability is existent or not between both medicaments, a logarithmic transformation of data was carried out and they were analyzed by means of the statistical package WinNonlinTM.
Confidence ranges proposed by FDA for semilogarithmic data in determining bioequivalency of two products are from 80 to 125%.

[3] = in vivo; cited from earlier work

SMILES: COc1cccc(C2(O)CCCCC2CN(C)C)c1 (stereo not shown) [Tramadol, Tramadol Hydrochloride]
- Gastric lesion ((Index of ulcers in drug tests / Index of ulcers in indomethacin tests) x 100) [1]: 0%
- Ratio (%Ref), Ln (Cmax) [2]: 124.02 %Ref
- Ratio (%Ref), LnAUCINF [2]: 76.38 %Ref
- Analgesic effect half-life [3]: about 6 hours
